Data: patent US20170146519A1, “STING AGONISTS AND METHODS OF SELECTING STING AGONISTS” (priority 2015, published 2017)

Key:
Sindbis virus (SINV) = type: cell-based
Mx2 and ISG56 proteins = type: cell-based, human
[1] = test system: IRF3/IFN-dependent genes in THF; type: cell-based, human

B1: IFNβ: Human recombinant IFNβ obtained from PBL, control stimulus at 1000 U/mL (protein, UniProt P01574 22-187, looked up)
Interferon beta: MSYNLLGFLQRSSNFQCQKLLWQLNGRLEYCLKDRMNFDIPEEIKQLQQFQKEDAALTIYEMLQNIFAIFRQDSSSTGWNETIVENLLANVYHQINHLKTVLEEKLEKEDFTRGKLMSSLHLKRYYGRILHYLKAKEYSHCAWTIVRVEILRNFYFINRLTGYLRN
- SINV replication in cells lacking IRF3 (Sindbis virus (SINV)): capable of inhibiting virus replication
- SINV replication in cells lacking IPS-1 (Sindbis virus (SINV); 48 h): diminishes replication of all three virus types by multiple logs
- SINV replication in cells lacking STAT1 (Sindbis virus (SINV); 48 h): profound
- Mx2 and ISG56 proteins in STAT1-deficient cells (Mx2 and ISG56 proteins): still detectable
- synthesis of Mx2 and ISG56 proteins (Mx2 and ISG56 proteins): capable of triggering synthesis of Mx2 and ISG56 proteins
- Mx2 and OAS mRNA induction [1]: substantial induction
